Results reported in patent US9029542B2 (priority 2011, dated 2015).

Tested on: Chenopodium serotinum
Assay: Postemergence weed clearing activity, pot-culture method
Conditions: 10 g/mu; foliage spray; visual 0-100% grading 25 days after application

SMILES | Postemergence weed clearing activity, Chenopodium serotinum [%]
O=C(COc1ccccc1Cl)OCC12COP(=O)(OC1)OC2 | 80
O=C(COc1ccc(Cl)cc1)OCC12COP(=O)(OC1)OC2 | 70
Cc1cc(Cl)ccc1OCC(=O)OCC12COP(=O)(OC1)OC2 | 70
O=C(COc1ccc(F)cc1Cl)OCC12COP(=O)(OC1)OC2 | 70
Cc1cc(OCC(=O)OCC23COP(=O)(OC2)OC3)ccc1Cl | 70

Tested on: rape
Assay: Weed clearing activity test with culture dish method (ex-vivo plate method)
Format: in vivo
Conditions: 10 μg/g; root length after 5 days; positive = inhibition

SMILES | weed clearing activity, rape Root (Effect) [%]
O=C(COc1ccccc1Cl)OCC12COP(=O)(OC1)OC2 | 95
O=C(COc1ccc(Cl)cc1)OCC12COP(=O)(OC1)OC2 | 92
Cc1cc(Cl)ccc1OCC(=O)OCC12COP(=O)(OC1)OC2 | 97
Cc1cccc(OCC(=O)OCC23COP(=O)(OC2)OC3)c1C | 86
O=C(COc1ccc(F)cc1Cl)OCC12COP(=O)(OC1)OC2 | 100
Cc1cc(OCC(=O)OCC23COP(=O)(OC2)OC3)ccc1Cl | 97
Cc1cccc(OCC(=O)OCC23COP(=O)(OC2)OC3)c1 | 91

Same assay, conditions: 10 μg/g; stem length after 5 days; positive = inhibition, negative = promotion

SMILES | weed clearing activity, rape Stem (Effect) [%]
O=C(COc1ccccc1Cl)OCC12COP(=O)(OC1)OC2 | 90
O=C(COc1ccc(Cl)cc1)OCC12COP(=O)(OC1)OC2 | 63
Cc1cc(Cl)ccc1OCC(=O)OCC12COP(=O)(OC1)OC2 | 92
Cc1cccc(OCC(=O)OCC23COP(=O)(OC2)OC3)c1C | 64
O=C(COc1ccc(F)cc1Cl)OCC12COP(=O)(OC1)OC2 | 93
Cc1cc(OCC(=O)OCC23COP(=O)(OC2)OC3)ccc1Cl | 90
Cc1cccc(OCC(=O)OCC23COP(=O)(OC2)OC3)c1 | 37

Same assay, conditions: 100 μg/g; root length after 5 days; positive = inhibition

SMILES | weed clearing activity, rape Root (Effect) [%]
O=C(COc1ccccc1Cl)OCC12COP(=O)(OC1)OC2 | 99
O=C(COc1ccc(Cl)cc1)OCC12COP(=O)(OC1)OC2 | 97
Cc1cc(Cl)ccc1OCC(=O)OCC12COP(=O)(OC1)OC2 | 100
Cc1cccc(OCC(=O)OCC23COP(=O)(OC2)OC3)c1C | 99
O=C(COc1ccc(F)cc1Cl)OCC12COP(=O)(OC1)OC2 | 100
Cc1cc(OCC(=O)OCC23COP(=O)(OC2)OC3)ccc1Cl | 100
Cc1cccc(OCC(=O)OCC23COP(=O)(OC2)OC3)c1 | 99

Same assay, conditions: 100 μg/g; stem length after 5 days; positive = inhibition

SMILES | weed clearing activity, rape Stem (Effect) [%]
O=C(COc1ccccc1Cl)OCC12COP(=O)(OC1)OC2 | 97
O=C(COc1ccc(Cl)cc1)OCC12COP(=O)(OC1)OC2 | 90
Cc1cc(Cl)ccc1OCC(=O)OCC12COP(=O)(OC1)OC2 | 99
Cc1cccc(OCC(=O)OCC23COP(=O)(OC2)OC3)c1C | 97
O=C(COc1ccc(F)cc1Cl)OCC12COP(=O)(OC1)OC2 | 99
Cc1cc(OCC(=O)OCC23COP(=O)(OC2)OC3)ccc1Cl | 97
Cc1cccc(OCC(=O)OCC23COP(=O)(OC2)OC3)c1 | 77

Tested on: cockspur grass
Assay: as above
Format: in vivo
Conditions: 10 μg/g; root length after 5 days; positive = inhibition

SMILES | weed clearing activity, cockspur grass Root (Effect) [%]
O=C(COc1ccccc1Cl)OCC12COP(=O)(OC1)OC2 | 91
O=C(COc1ccc(Cl)cc1)OCC12COP(=O)(OC1)OC2 | 83
Cc1cc(Cl)ccc1OCC(=O)OCC12COP(=O)(OC1)OC2 | 97
Cc1cccc(OCC(=O)OCC23COP(=O)(OC2)OC3)c1C | 44
O=C(COc1ccc(F)cc1Cl)OCC12COP(=O)(OC1)OC2 | 95
Cc1cc(OCC(=O)OCC23COP(=O)(OC2)OC3)ccc1Cl | 91
Cc1cccc(OCC(=O)OCC23COP(=O)(OC2)OC3)c1 | 83

Same assay, conditions: 10 μg/g; stem length after 5 days; positive = inhibition

SMILES | weed clearing activity, cockspur grass Stem (Effect) [%]
O=C(COc1ccccc1Cl)OCC12COP(=O)(OC1)OC2 | 48
O=C(COc1ccc(Cl)cc1)OCC12COP(=O)(OC1)OC2 | 37
Cc1cc(Cl)ccc1OCC(=O)OCC12COP(=O)(OC1)OC2 | 50
Cc1cccc(OCC(=O)OCC23COP(=O)(OC2)OC3)c1C | 18
O=C(COc1ccc(F)cc1Cl)OCC12COP(=O)(OC1)OC2 | 43
Cc1cc(OCC(=O)OCC23COP(=O)(OC2)OC3)ccc1Cl | 55
Cc1cccc(OCC(=O)OCC23COP(=O)(OC2)OC3)c1 | 0

Same assay, conditions: 100 μg/g; root length after 5 days; positive = inhibition

SMILES | weed clearing activity, cockspur grass Root (Effect) [%]
O=C(COc1ccccc1Cl)OCC12COP(=O)(OC1)OC2 | 97
O=C(COc1ccc(Cl)cc1)OCC12COP(=O)(OC1)OC2 | 97
Cc1cc(Cl)ccc1OCC(=O)OCC12COP(=O)(OC1)OC2 | 97
Cc1cccc(OCC(=O)OCC23COP(=O)(OC2)OC3)c1C | 89
O=C(COc1ccc(F)cc1Cl)OCC12COP(=O)(OC1)OC2 | 95
Cc1cc(OCC(=O)OCC23COP(=O)(OC2)OC3)ccc1Cl | 97
Cc1cccc(OCC(=O)OCC23COP(=O)(OC2)OC3)c1 | 94

Same assay, conditions: 100 μg/g; stem length after 5 days; positive = inhibition

SMILES | weed clearing activity, cockspur grass Stem (Effect) [%]
O=C(COc1ccccc1Cl)OCC12COP(=O)(OC1)OC2 | 55
O=C(COc1ccc(Cl)cc1)OCC12COP(=O)(OC1)OC2 | 42
Cc1cc(Cl)ccc1OCC(=O)OCC12COP(=O)(OC1)OC2 | 65
Cc1cccc(OCC(=O)OCC23COP(=O)(OC2)OC3)c1C | 50
O=C(COc1ccc(F)cc1Cl)OCC12COP(=O)(OC1)OC2 | 54
Cc1cc(OCC(=O)OCC23COP(=O)(OC2)OC3)ccc1Cl | 63
Cc1cccc(OCC(=O)OCC23COP(=O)(OC2)OC3)c1 | 39

Tested on: Amaranthus retroflexus
Assay: Postemergence weed clearing activity, pot-culture method
Format: in vivo
Conditions: 10 g/mu; foliage spray; visual 0-100% grading 25 days after application

SMILES | weed clearing activity, Amaranthus retroflexus Postemergence [%]
O=C(COc1ccccc1Cl)OCC12COP(=O)(OC1)OC2 | 70
O=C(COc1ccc(Cl)cc1)OCC12COP(=O)(OC1)OC2 | 0
Cc1cc(Cl)ccc1OCC(=O)OCC12COP(=O)(OC1)OC2 | 0
O=C(COc1ccc(F)cc1Cl)OCC12COP(=O)(OC1)OC2 | 40
Cc1cc(OCC(=O)OCC23COP(=O)(OC2)OC3)ccc1Cl | 0

Tested on: Capsella bursa-pastoris
Assay: as above
Format: in vivo
Conditions: 10 g/mu; foliage spray; visual 0-100% grading 25 days after application

SMILES | weed clearing activity, Capsella bursa-pastoris Postemergence [%]
O=C(COc1ccccc1Cl)OCC12COP(=O)(OC1)OC2 | 90
O=C(COc1ccc(Cl)cc1)OCC12COP(=O)(OC1)OC2 | 0
Cc1cc(Cl)ccc1OCC(=O)OCC12COP(=O)(OC1)OC2 | 0
O=C(COc1ccc(F)cc1Cl)OCC12COP(=O)(OC1)OC2 | 60
Cc1cc(OCC(=O)OCC23COP(=O)(OC2)OC3)ccc1Cl | 0
